In the assay the target is T1, human Cav3.2 (Homo sapiens, UniProt O95180).
T1 construct: expressed in transfected cells; host or cells: Xenopus laevis oocytes (cDNA injection)
Kind of assay: Double microelectrode imposed-voltage recording of CaV3.2 current in Xenopus oocytes. Format: cell-based. To be noted: FIG. 4, CaV3.2 currents before and during application.

Amino acid sequences for entries named in this document (tags omitted). A change or cut given only in a name is not applied to a line headed by its entry.
UniProt O95180: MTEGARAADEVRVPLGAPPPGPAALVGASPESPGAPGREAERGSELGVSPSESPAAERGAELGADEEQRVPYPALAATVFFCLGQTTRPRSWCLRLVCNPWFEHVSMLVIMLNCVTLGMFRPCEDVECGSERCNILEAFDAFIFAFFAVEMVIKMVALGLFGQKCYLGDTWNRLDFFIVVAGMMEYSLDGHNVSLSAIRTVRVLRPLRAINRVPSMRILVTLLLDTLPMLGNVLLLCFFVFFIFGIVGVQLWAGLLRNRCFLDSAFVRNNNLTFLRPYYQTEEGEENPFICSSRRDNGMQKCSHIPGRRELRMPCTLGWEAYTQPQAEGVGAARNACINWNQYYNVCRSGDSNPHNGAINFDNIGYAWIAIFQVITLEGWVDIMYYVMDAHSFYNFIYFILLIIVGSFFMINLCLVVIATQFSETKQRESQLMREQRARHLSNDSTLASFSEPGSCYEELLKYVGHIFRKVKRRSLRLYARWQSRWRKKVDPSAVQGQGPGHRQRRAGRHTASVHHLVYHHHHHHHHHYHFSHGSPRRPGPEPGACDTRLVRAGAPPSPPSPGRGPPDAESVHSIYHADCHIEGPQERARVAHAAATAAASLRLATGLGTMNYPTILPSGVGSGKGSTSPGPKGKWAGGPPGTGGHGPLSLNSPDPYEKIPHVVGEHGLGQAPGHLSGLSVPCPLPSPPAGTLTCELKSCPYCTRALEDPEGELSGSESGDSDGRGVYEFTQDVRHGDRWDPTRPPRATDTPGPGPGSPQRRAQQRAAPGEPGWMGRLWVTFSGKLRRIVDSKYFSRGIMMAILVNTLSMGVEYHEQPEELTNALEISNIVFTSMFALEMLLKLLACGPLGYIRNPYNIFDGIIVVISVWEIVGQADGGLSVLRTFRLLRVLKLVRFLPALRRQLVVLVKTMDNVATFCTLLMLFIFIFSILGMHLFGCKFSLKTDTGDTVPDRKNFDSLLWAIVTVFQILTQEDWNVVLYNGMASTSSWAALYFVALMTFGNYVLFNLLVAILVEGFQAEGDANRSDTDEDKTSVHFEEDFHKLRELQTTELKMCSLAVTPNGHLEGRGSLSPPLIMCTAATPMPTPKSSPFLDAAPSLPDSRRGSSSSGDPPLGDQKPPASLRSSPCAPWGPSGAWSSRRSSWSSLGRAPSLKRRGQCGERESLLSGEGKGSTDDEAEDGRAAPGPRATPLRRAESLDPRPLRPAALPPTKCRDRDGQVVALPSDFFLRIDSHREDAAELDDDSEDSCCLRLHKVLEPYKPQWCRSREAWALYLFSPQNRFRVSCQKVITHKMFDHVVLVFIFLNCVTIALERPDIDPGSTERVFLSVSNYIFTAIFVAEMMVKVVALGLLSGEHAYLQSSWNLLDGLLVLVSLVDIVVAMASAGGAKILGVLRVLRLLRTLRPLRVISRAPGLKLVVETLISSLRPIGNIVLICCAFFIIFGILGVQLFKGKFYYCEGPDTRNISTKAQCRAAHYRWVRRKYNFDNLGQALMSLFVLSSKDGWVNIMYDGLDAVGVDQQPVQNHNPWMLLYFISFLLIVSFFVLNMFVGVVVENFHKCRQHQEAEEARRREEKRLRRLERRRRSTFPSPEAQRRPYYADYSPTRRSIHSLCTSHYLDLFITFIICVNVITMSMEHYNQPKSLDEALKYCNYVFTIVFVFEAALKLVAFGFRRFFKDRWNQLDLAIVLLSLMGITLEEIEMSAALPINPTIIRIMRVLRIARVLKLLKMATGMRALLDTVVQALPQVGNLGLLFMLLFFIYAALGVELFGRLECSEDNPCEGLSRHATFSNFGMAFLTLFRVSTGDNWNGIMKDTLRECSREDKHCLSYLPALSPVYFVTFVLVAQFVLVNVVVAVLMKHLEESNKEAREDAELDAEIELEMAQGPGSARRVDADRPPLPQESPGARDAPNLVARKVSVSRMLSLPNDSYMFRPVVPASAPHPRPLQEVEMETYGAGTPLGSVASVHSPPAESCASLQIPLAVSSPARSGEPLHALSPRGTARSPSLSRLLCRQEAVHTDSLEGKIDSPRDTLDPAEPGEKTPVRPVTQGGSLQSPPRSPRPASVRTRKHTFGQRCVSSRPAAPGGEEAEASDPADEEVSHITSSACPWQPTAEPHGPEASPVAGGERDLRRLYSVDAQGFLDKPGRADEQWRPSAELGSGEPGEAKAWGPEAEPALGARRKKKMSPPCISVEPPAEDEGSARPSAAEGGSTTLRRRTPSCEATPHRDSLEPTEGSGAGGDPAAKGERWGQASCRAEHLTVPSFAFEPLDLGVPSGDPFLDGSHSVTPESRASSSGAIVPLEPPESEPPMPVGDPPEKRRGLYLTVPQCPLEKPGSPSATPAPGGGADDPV

Take `CC[C@H](C)[C@H](NC(=O)[C@H](CCCCN)NC(=O)[C@@H]1CSSC[C@@H]2NC(=O)[C@@H]3CCCN3C(=O)[C@H](CCCNC(=N)N)NC(=O)[C@H](CCC(=O)O)NC(=O)[C@H](CO)NC(=O)[C@H](CC(=O)O)NC(=O)[C@@H]3CSSC[C@H](NC(=O)[C@H](C(C)C)NC(=O)[C@H](CC(C)C)NC(=O)CNC(=O)[C@H](CCC(=O)O)NC(=O)[C@H](CSSC[C@H](NC(=O)[C@@H](N)Cc4ccc(O)cc4)C(=O)N[C@@H](CCC(N)=O)C(=O)N[C@@H](CCCCN)C(=O)N[C@@H](Cc4ccccc4)C(=O)N[C@@H](CC(C)C)C(=O)N[C@@H](Cc4c[nH]c5ccccc45)C(=O)N[C@@H]([C@@H](C)O)C(=O)N3)NC2=O)C(=O)N[C@@H](CCCNC(=N)N)C(=O)N[C@@H](CC(C)C)C(=O)N[C@@H](Cc2c[nH]c3ccccc23)C(=O)N1)C(=O)N[C@@H](CC(N)=O)C(=O)O` [natural toxin]: the “shift of the current-voltage relation toward the positive voltages” value is “about 20 mV”.

Source of the values: US8664179B2, “Identification of novel antagonist toxins of T-type calcium channel for analgesic purposes” (Centre National de la Recherche Scientifique (CNRS), priority 2009, dated 2014).
